Results published in PMC6270001, “Synthesis and Antiviral Activity of N-Phenylbenzamide Derivatives, a Novel Class of Enterovirus 71 Inhibitors” (Molecules, 2013).

How the values were obtained:
Assay type in all cases: cell-based, Enterovirus 71
[1] = tested on: EV 71 strain H (genotype C2); assay: Anti EV 71 activity assay (CPE, Reed & Muench) in Vero cells, strain H; settings: selectivity index TC50/IC50, strain H; "-" stands for no antiviral selectivity
Method: (§1) The EV 71 was divided into three genotypes A, B and C based on nucleotide sequence comparisons, and genotypes B and C were subdivided into B1-B5 and C1-C5 [6, 10]. Genotype C is the most common genotype found in mainland China, especially the C4 subgenotype. Consequently, the intermediate compounds 1a, 1c and 1e, and the final products 2a–c, 3a–g, and 5a–f were evaluated for their anti-EV 71 activity in Vero cells against genotypes C4 (strains SZ-98 and JS-52-3), C2 (strain H) and A (strain BrCr). […] The IC50 values were calculated by the Reed and Muench method, and the cytotoxicity was monitored by the CPE method.
(§2) Vero cells were purchased from the American Type Culture Collection and cultured in Minimum Essential Medium (MEM) supplemented with 10% Fetal Bovine Serum (FBS) and antibiotics (100 U/mL penicillin G, 100 μg/mL streptomycin). Enterovirus 71 (EV 71) strain SZ-98 was kindly provided by Dr. Qi Jin, Institute of Pathogen Biology, Chinese Academy of Medical Science and Peking Union Medical School. Enterovirus 71 (EV 71) strain BrCr (VR-1775) was purchased from the American Type Culture Collection. Enterovirus 71 (EV 71) strain JS-52-3 was kindly provided by Dr. Xiang-zhong Ye, Beijing Wantai Biological Pharmacy Enterprise Co., Ltd. All Enterovirus 71 strains were propagated in Vero cells. […]

[2] = tested on: EV 71 strain JS-52-3 (genotype C4); assay: Anti EV 71 activity assay (CPE, Reed & Muench) in Vero cells, strain JS-52-3; settings: selectivity index TC50/IC50, strain JS-52-3; "-" stands for no antiviral selectivity
Method: as §1, §2

[3] = tested on: EV 71 strains SZ-98, JS-52-3, H, BrCr; assay: Anti EV 71 activity assay in Vero cells, summary over the four strains tested; settings: TC50/IC50, range over the EV 71 strains tested
Method: as §1, §2

[4] = tested on: EV 71 strain BrCr (genotype A); assay: Anti EV 71 activity assay (CPE, Reed & Muench) in Vero cells, strain BrCr; settings: selectivity index TC50/IC50, strain BrCr; "-" stands for no antiviral selectivity
Method: as §1, §2

[5] = tested on: EV 71 strain SZ-98 (genotype C4); assay: Anti EV 71 activity assay (CPE, Reed & Muench) in Vero cells, strain SZ-98; settings: selectivity index TC50/IC50, strain SZ-98; "-" stands for no antiviral selectivity
Method: as §1, §2

CCOC(=O)c1ccc(OCCC2CCN(c3ccc(C)nn3)CC2)cc1 [Pirodavir, pirodavir, reference compound]
SI H [1]: 52 | SI JS-52-3 [2]: 30 | selectivity index (SI) values (range over strains) [3]: 25–52 | SI BrCr [4]: 30 | SI SZ-98 [5]: 25
